Values of other authors in patent US11833171B2, “Materials and methods relating to stabilised polymeric silicate compositions” (United Kingdom Research and Innovation, priority 2014, dated 2023).

Conditions: 25° C.

## silicic acid [aqueous silicate]
  maximum solubility of aqueous silicate: 1700 µM
